{
  "source": "patent US8741882B2",
  "about": "“Anti-diabetic compounds” (Sen Capital, LLC., priority 2012, dated 2014)",
  "origin": "cited, not measured here",
  "details": "in vivo; cited from earlier work",
  "data": [
    {"smiles": "CN(C)C(=N)N=C(N)N", "note": "[Metformin, N,N-dimethylimidodicarbonimidic diamide]", "values": [
      {"measurement": "metabolism and excretion", "result": "excreted unchanged in the urine and does not undergo hepatic metabolism nor billary excretion"}
    ]}
  ]
}
